Source: US12296048B2, “Polymer particles for neutrophil injury” (THE REGENTS OF THE UNIVERSITY OF MICHIGAN, priority 2019, dated 2025)

Columns and labels:
human RBCs = experiment: Hemolysis assay
[1] = tested on: P. aeruginosa infected mice; experiment: P. aeruginosa lung infection mouse model of ALI/ARDS; details: in vivo

## salicylate polyanhydride ester that hydrolyzes to salicylic acid [Poly-A particles]
Human RBCs
  induce hemolysis when placed in human blood: do not
[1]
  impact on host's ability to clear a primary lung infection: do not negatively impact
